Reference: ChEMBL document CHEMBL4321814, “Design of Gallinamide A Analogs as Potent Inhibitors of the Cysteine Proteases Human Cathepsin L and Trypanosoma cruzi Cruzain” (J Med Chem, 2019)

Chains of the proteins cited; added tags and fusions are not shown. Lines headed by an entry give the natural chain unless they say otherwise; changes in a name come on top.
UniProt P07711: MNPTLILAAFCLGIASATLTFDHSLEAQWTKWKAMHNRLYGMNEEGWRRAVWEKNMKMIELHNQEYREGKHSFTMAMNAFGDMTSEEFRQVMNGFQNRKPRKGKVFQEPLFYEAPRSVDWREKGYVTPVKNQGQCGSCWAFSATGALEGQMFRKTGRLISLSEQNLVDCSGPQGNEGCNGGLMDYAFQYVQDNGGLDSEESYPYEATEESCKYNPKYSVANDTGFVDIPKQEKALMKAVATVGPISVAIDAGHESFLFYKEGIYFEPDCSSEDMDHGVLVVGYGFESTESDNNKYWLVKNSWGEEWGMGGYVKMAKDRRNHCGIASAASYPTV

Target: Procathepsin L (Homo sapiens) (UniProt P07711)
Experiment: Inhibition of human cathepsin L assessed as Kinact /Ki ratio using fluorogenic substrate cbz-FR-AMC monitored for 90 to 120 mins by spectrophotometry
In short: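 Continuous kinetic assay with 0.5 ng/mL final cathepsin L and 10 μM Z-FR-AMC, with DMSO below 6%. Inhibitors were a 3-fold, 11-point series from […] to 1.0 μM. Substrate and inhibitor were combined and enzyme was added to start the reaction. AMC release was read for 2 h and converted via an AMC standard curve. Progress curves were fitted to a six-parameter covalent inhibition model (k_inact, association/dissociation constants).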

SMILES	Ratio [×10³ /M/s]
CC[C@H](C)[C@@H](C(=O)O[C@@H](CC(C)C)C(=O)N[C@@H](CC(C)C)C(=O)N[C@@H](C)/C=C/C(=O)N1C(=O)C=C(OC)[C@@H]1Cc1ccccc1)N(C)C	1300
CC[C@H](C)[C@@H](C(=O)O[C@@H](CC(C)C)C(=O)N[C@@H](CC(C)C)C(=O)N[C@H](/C=C/C(=O)N1C(=O)C=C(OC)[C@@H]1C)Cc1ccccc1)N(C)C	818
C#CCCCCOC1=CC(=O)N(C(=O)/C=C/[C@H](C)NC(=O)[C@H](CC(C)C)NC(=O)[C@H](CC(C)C)OC(=O)[C@H]([C@@H](C)CC)N(C)C)[C@@H]1C	3600
CC[C@H](C)[C@@H](C(=O)O[C@@H](CC(C)C)C(=O)N[C@@H](CC(C)C)C(=O)N[C@H](/C=C/C(=O)N1C(=O)C=C(OC)[C@@H]1CC(C)C)Cc1ccccc1)N(C)C	8730
